The values that follow come from PMC6003237 (Bioorganic & medicinal chemistry, 2017).

This series has as its system mice. The following applies: mouse, in vivo, iv.

As for `CC[C@H]1CN2CCc3cc(OC)c(OC)cc3[C@@H]2C[C@@H]1C[C@@H]1c2cc(OC)c(OC)cc2CCN1C(=S)Nc1ccccc1` [compound 26], the “Effects/observations at higher doses” value is “No remarkable behavior, no sign of toxicity. Mice remained alive”.
